# Values of other authors in PMC11520371, “Abnormally high plasma concentrations of M-4, the active metabolite of edoxaban, at the onset of acute kidney injury in a patient receiving rifampin and clarithromycin: a case report” (Journal of Pharmaceutical Health Care and Sciences, 2024).
# Test system: factor Xa
# Parameters: method as in PMID 26620048
# Conditions: cited from earlier work
structure (smiles),measurement,setting,value
CN1CCc2nc(C(=O)N[C@@H]3C[C@@H](C(=O)N(C)C)CC[C@@H]3NC(=O)C(=O)Nc3ccc(Cl)cn3)sc2C1 [edoxaban],anti-factor Xa activity IC50,,1.64 ng/mL
same,IC50,read-out: anti-factor Xa activity IC50,3 nM
